Literature values in US11826435B2, “Conduritol aziridine derivatives and uses thereof” (University of Saskatchewan, priority 2017, dated 2023).

Protein sequences, listed by entry. Tags and fused reporters are not part of them. Residues count along the entry.
UniProt P04062, 40-536 limits assumed: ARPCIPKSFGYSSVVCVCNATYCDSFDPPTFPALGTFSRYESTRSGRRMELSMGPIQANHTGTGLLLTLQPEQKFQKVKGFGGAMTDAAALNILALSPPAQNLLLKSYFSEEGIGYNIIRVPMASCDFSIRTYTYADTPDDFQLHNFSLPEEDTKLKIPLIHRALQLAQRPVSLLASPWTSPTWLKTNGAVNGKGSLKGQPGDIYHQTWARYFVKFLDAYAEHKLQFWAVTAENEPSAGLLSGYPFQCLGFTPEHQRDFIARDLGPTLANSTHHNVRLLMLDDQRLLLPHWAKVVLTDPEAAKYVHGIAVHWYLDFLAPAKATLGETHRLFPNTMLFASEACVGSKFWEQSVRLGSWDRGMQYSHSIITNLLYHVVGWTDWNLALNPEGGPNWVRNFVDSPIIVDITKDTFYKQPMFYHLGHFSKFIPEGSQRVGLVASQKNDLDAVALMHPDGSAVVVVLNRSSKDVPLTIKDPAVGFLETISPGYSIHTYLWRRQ

Molecular target: GCase (Homo sapiens (Human), UniProt P04062)
Details: reported data, cited from earlier work; for Ki / ki/Ki: inhibition of GCase; for ki: rate constant of inactivation of GCase

| Structure (SMILES) | Ki | ki/Ki | ki |
| --- | --- | --- | --- |
| CCCCCCN1C2C(O)C(O)C(O)C(O)C21 (stereo not drawn) | 50 nM | 2.80 μM^−1/min^−1 | 0.140 min⁻¹ |
| CCCCN1C2C(O)C(O)C(O)C(O)C21 (stereo not drawn) | 2400 nM | 0.058 μM^−1/min^−1 | 0.140 min⁻¹ |
